Experimental data from PubChem BioAssay AID651635 (National Center for Advancing Translational Sciences (NCATS), 2012).
This is a selection; strong and weak results do not stand in their true shares. Records with an inconclusive call do not appear. A call without a number means that no potency is given here. Calls of active or inactive are those of the source. Calls follow the shape of the dose curve; as a rule, active = well fitted cell-killing curve with a large enough effect; inconclusive = small, poorly fitted or top-dose-only effect, or effect the other way; inactive = no such curve, though single readings can be large or run the other way.

Test: Viability Counterscreen for Primary qHTS for Inhibitors of ATXN expression; also: nearly all actives have a fitted effect of over 40% in size
Conditions: S2 cells (HEK-293 line with an ATXN2-luciferase reporter) viability, CellTiter-Fluor protease fluorescence, 24 h; series mostly up to 56.7 µM

| SMILES | Potency |
| --- | --- |
| CCCCCCCCCCCCCCCC1C[N+](C)(C)CCOP(C)(=O)O1 (stereo not given) | inactive |
| CP(=O)(Nc1ccc(Cl)cc1Cl)Oc1ccccc1 (stereo not given) | inactive |
| Cc1cc(C)cc(OP(C)(=O)Nc2cccc(C(F)(F)F)c2)c1 (stereo not given) | inactive |
| COc1ccc(OP(C)(=O)Nc2ccccc2Br)cc1 (stereo not given) | inactive |
| COc1ccccc1OP(C)(=O)Nc1ccc(C)c(C)c1 (stereo not given) | inactive |
| CCc1ccc(OP(C)(=O)O)cc1 | inactive |
| COc1ccccc1OP(C)(=O)Nc1ccc(C)cc1C (stereo not given) | inactive |
| CP(=O)(Nc1ccccn1)Oc1ccccc1 (stereo not given) | inactive |
| COc1ccccc1OP(C)(=O)Nc1ccc(Br)cc1 (stereo not given) | inactive |
| CN(C)CCOC(=O)C(O)(c1ccccc1)C1CCCC1 (stereo not given) | inactive |
| COc1ccc(OP(C)(=O)Nc2ccccn2)cc1 (stereo not given) | inactive |
| CP(=O)(Nc1ccc(Cl)cc1)Oc1ccc(F)cc1 (stereo not given) | inactive |
| COc1ccccc1OP(C)(=O)Nc1ccccc1Br (stereo not given) | inactive |
| CC(C)(C)c1ccc(OP(C)(=O)O)cc1 | inactive |
| COc1ccc(OP(C)(=O)Nc2ccc(Br)cc2)cc1 (stereo not given) | inactive |
| CCN(CC)CC(O)COC(=O)C(O)(c1ccccc1)C1CCCCC1 (stereo not given) | inactive |
| CCc1ccc(OP(C)(=O)Nc2cccnc2)cc1 (stereo not given) | inactive |
| CP(=O)(Oc1ccccc1)N1CCOC1=O (stereo not given) | inactive |
| O=C(OCCCN1CCCC1)C(O)(c1ccccc1)C1CCCCC1 (stereo not given) | inactive |
| OCCSCCO | inactive |
| CP(=O)(OC12CC3CC(CC(C3)C1)C2)OC12CC3CC(CC(C3)C1)C2 | inactive |
| O=[N+]([O-])c1ccc(OP2(=O)COCCO2)cc1 (stereo not given) | inactive |
| Cc1c(C(c2ccc3c(c2)OCO3)c2c(C)n(C)n(-c3ccccc3)c2=O)c(=O)n(-c2ccccc2)n1C.O=[N+]([O-])c1cc([N+](=O)[O-])c(O)c([N+](=O)[O-])c1 | inactive |
| COc1ccc(OP(C)(=O)Nc2cccc(Br)c2)cc1 (stereo not given) | inactive |
| COc1ccc(NP(C)(=O)Oc2ccccc2OC)cc1 (stereo not given) | inactive |
| CN(C)CCOC(=O)C(O)(c1ccccc1)C1CCCCC1 (stereo not given) | inactive |
| CP(=O)(Nc1ccc2c(c1)OCCO2)Oc1ccccc1 (stereo not given) | inactive |
| O=[N+]([O-])c1cc([N+](=O)[O-])c(C(F)(F)F)c([N+](=O)[O-])c1O | inactive |
| Cc1ccccc1NP(C)(=O)Nc1ccccc1C | inactive |
| C/C1=C2N=C(/C=C3N=C(/C(C)=C4\[N-][C@@](C)([C@@H]5N=C1[C@](C)(CCC(=O)NC[C@@H](C)OP(=O)([O-])O[C@H]1[C@@H](O)[C@@H](n6cnc7cc(C)c(C)cc76)O[C@@H]1CO)[C@H]5CC(N)=O)[C@@](C)(CC(N)=O)[C@@H]4CCC(N)=O)[C@@](C)(CC(N)=O)[C@@H]\3CCC(N)=O)C(C)(C)[C@@H]/2CCC(N)=O.[C-]#N.[Co+3] | inactive |
